Bioassay records deposited in PubChem by Broad Institute.
An excerpt weighted towards active compounds, which were near 1.5% of everything screened.
FN deposit inh = fibronectin deposition inhibition | hit rate 0.086% among 350,000 | inhibition, % at 12.6 µM | AID 743247 | AH1F fibroblasts, Alexa488-fibronectin deposition fluorescence, overnight;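 active means mean inhibition across replicates of 30% or more, regardless of how many single replicates reach that level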;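 further: positive control wells lacked labelled fibronectin entirely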
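Material – AH1F fibroblast monolayer, labelled fibronectin deposition · Reagent – labelled fibronectin 24 nM · Timing – 1 h adhesion, overnight exposure · Measured by – fluorescence at 485 nm excitation, 525 nm emission · Read-out – inhibition of fibronectin deposition signal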
Yeast UUG start = yeast start codon fidelity modulation; AID 602363; activity score, % at 18.7 µM; S. cerevisiae UUG-firefly luciferase reporter, luminescence/redox ratio; 0.13% of 350,000 active;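 active means replicate mean at a twofold rise or more, about +100% in these data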;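 further: firefly luciferase made from a UUG start codon reports start codon fidelity; reporter light over untreated wells divided by growth signal over untreated wells; some hits fall short of that in this replicate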
Env fusion inh = blocks HIV Env-driven cell-cell fusion; hit rate 1.1% among 360,000; HeLa-JRFL Env/CEM21 cell fusion, luciferase; inhibition, % at 12.3 µM;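 active means mean replicate inhibition score of at least 50 and every replicate individually at or above 50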;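 further: 0% = plate neutral controls and 100% = maraviroc near 300 nM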
PGC1a acetyl inh = modulators of PGC1a acetylation | hit rate 0.17% among 350,000 | U2OS PGC1a acetylation, AlphaScreen anti-acetyl-lysine; with virally co-expressed GCN5 acetyltransferase | AID 651687 | inhibition, % at 15.6 µM;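 active means every replicate shows inhibition of at least 40%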;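 further: 0% = neutral control wells and 100% = positive control wells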
Cneo AK release = Cryptococcus neoformans lysis via adenylate kinase release | hit rate 0.2% among 360,000 | lysis activity, % at 15 µM | C. neoformans lysis, adenylate kinase release luminescence, 4 h; normalised: neutral wells 0, clomiphene wells 100;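 active means mean lysis activity across replicates of at least 80%, whatever share of replicates individually reach that level; inactive means mean lysis activity below 80%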
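Assay system: Cryptococcus neoformans yeast cells / Dosing: single-point compound dose / Timing: 4 h at 37 °C static, read 1 h later / Measured by: luminescence of released adenylate kinase using an AK detection reagent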
miR122 inh = miR-122 inhibition in Huh7 cells. Huh7 miR-122 Renilla luciferase sensor, 48 h; neutral wells = 0, positive control = 100. activation (reporter increase), % at 12.5 µM. hit rate 0.3% among 340,000. AID 602342;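 active means mean replicate activation score at least 90 and every replicate individually at or above 90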;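 further: higher luciferase means less miR-122 activity so hits act as miR-122 inhibitors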
Active calls of the source: *; / = not tested or not shown; ! = not active in a repeat; [ ] = another dose, or the depositor's remark.

structure	FN deposit inh	Yeast UUG start	Env fusion inh	PGC1a acetyl inh	Cneo AK release	miR122 inh
COc1ccccc1C#Cc1ccc2c(c1)O[C@H](CN(C)C(C)=O)[C@H](C)CN([C@@H](C)CO)S2(=O)=O	5	37	13[16.7 µM]	-3	104*	19[16.7 µM]
C[C@H](O)C#Cc1ccc2c(c1)O[C@H](CN(C)Cc1ccncc1)[C@H](C)CN([C@H](C)CO)S2(=O)=O	-2	12	-47[16.7 µM]	7	95*	22[16.7 µM]
C[C@@H]1CN([C@H](C)CO)S(=O)(=O)c2ccc(C#C[C@@H](C)O)cc2O[C@@H]1CN(C)Cc1ccncc1	-9	16	-7[16.7 µM]	7	83*	50[16.7 µM]
C[C@@H]1CN([C@@H](C)CO)S(=O)(=O)c2ccc(C#C[C@@H](C)O)cc2O[C@H]1CN(C)Cc1ccncc1	-16	-3	8[16.7 µM]	-23	-1	1[16.7 µM]
CN(C(=O)c1cccc(C#N)c1)c1nnc(C2CCCO2)s1 (stereo not given)	5	-18	-31	3	-5	-1
CC(C)Cc1nc(SCC(=O)Nc2nnc(CC(C)C)s2)n[nH]1	-1	/	11	5	/	/
O=[N+]([O-])c1ccc(-c2ccc(/C=N/Nc3nc(N4CCCCC4)nc(N4CCCCC4)n3)o2)cc1	7	/	16	5	/	-7
C[C@@H]1CN([C@@H](C)CO)C(=O)c2cccc(NS(=O)(=O)c3ccc(Cl)cc3)c2O[C@H]1CN(C)S(=O)(=O)c1ccccc1	/	1	-39[16.7 µM]	0	53	-1[16.7 µM]
Cc1ccccc1N(C(=O)CCCC(=O)Nc1ccccn1)C(C(=O)NC1CCCC1)c1ccc(O)cc1 (stereo not given)	3	13	4	7	2	132*
C[C@H]1CN([C@@H](C)CO)S(=O)(=O)c2ccc(C#Cc3cccc(F)c3)cc2O[C@@H]1CN(C)C(=O)NC1CCCCC1	-8	29	5[16.7 µM]	9	102*	32[16.7 µM]
C[C@@H]1CN([C@@H](C)CO)S(=O)(=O)c2ccc(C#Cc3cccc(F)c3)cc2O[C@@H]1CN(C)C(=O)NC1CCCCC1	-12	/	-11[16.7 µM]	-6	/	7[16.7 µM]
C[C@H](CO)N1C[C@H](C)[C@H](CN(C)C(=O)NC2CCCC2)Oc2cc(C#Cc3ccc(F)cc3)ccc2S1(=O)=O	-3	-5	63*[16.7 µM]	19	1	6[16.7 µM]
C[C@@H]1CN([C@H](C)CO)S(=O)(=O)c2ccc(C#Cc3cccc(F)c3)cc2O[C@@H]1CN(C)C(=O)CN1CCOCC1	3	41	81*!	6	-1	-2
C[C@H](CO)N1C[C@H](C)[C@@H](CN(C)C(=O)NC2CCCC2)Oc2cc(C#Cc3ccc(F)cc3)ccc2S1(=O)=O	4	11	13[16.7 µM]	14	6	46[16.7 µM]
C[C@H](CO)N1C[C@H](C)[C@H](CN(C)C(=O)CN2CCOCC2)Oc2cc(C#Cc3cccc(F)c3)ccc2S1(=O)=O	0	22	3[16.7 µM]	-5	14	-6[16.7 µM]
O=C(NC1c2ccccc2-c2ccccc21)N1CCOCC1	/	-23	/	6	-1	1
Cc1cccc(CCNC(=O)C2CCC(=O)N2Cc2ccc(F)cc2)c1 (stereo not given)	/	6	/	-2	-2	10
C=C1C(=O)[C@]23C[C@H]1CCC2[C@@]1(C)C(C[C@@H]3O)[C@](C)(C(=O)OC)CC[C@@H]1O (stereo not given in full)	-1	0	22	92*	-2	-27
C[C@@]12C(C[C@H](O)[C@@]34C[C@@H](CCC13)[C@@H](CO)C4=O)[C@](C)(C(=O)O)CC[C@@H]2O (stereo not given in full)	-2	-11	-19	-7	0	0
C[C@@H]1CN([C@H](C)CO)C(=O)c2cc(NC(=O)Nc3ccccc3)ccc2O[C@@H]1CN(C)C(=O)Nc1ccc(F)cc1	-19	-5	/	-3	-2	-8[16.7 µM]

Structural class, the entries above with two or more sulfur atoms (two)
structure	FN deposit inh	Yeast UUG start	Env fusion inh	PGC1a acetyl inh	Cneo AK release	miR122 inh
CC(C)Cc1nc(SCC(=O)Nc2nnc(CC(C)C)s2)n[nH]1	-1	/	11	5	/	/
C[C@@H]1CN([C@@H](C)CO)C(=O)c2cccc(NS(=O)(=O)c3ccc(Cl)cc3)c2O[C@H]1CN(C)S(=O)(=O)c1ccccc1	/	1	-39[16.7 µM]	0	53	-1[16.7 µM]

(list continues)
structure	FN deposit inh	Yeast UUG start	Env fusion inh	PGC1a acetyl inh	Cneo AK release	miR122 inh
C=C1C(=O)O[C@@H]2C[C@@H](C)[C@@H]3C=CC(=O)[C@@]3(C)[C@@H](OC(C)=O)[C@H]12	39*	/	129*	/	/	/
Cc1[nH]n(S(=O)(=O)Cc2ccccc2)c(=O)c1N=Nc1ccccc1Cl	-4	-2	8	-8	-1	1
COc1nc(Nc2nc3ccccc3c(=O)[nH]2)nc2ccc(C)cc12	6	-6	103*	-2	1	10
Cc1cc(C)cc(Nc2nc3ccccc3c(=O)[nH]2)c1	/	/	1	13	/	1
